Experimental data reported in US20080096872A1, “Composition for Treatment of Pain Specification” (priority 2004, published 2008).

Test: Serum levels of methadone and EDDP enantiomers by stereoselective LC/MS, with and without NAC
Format: in vivo, human
Details: each patient, when NAC is used versus not; differences may not be statistically significant

SMILES: CC(=O)N[C@@H](CS)C(=O)O [NAC, N-acetyl-cysteine]
- ratio of metabolite/parent isomer (rmtd/reddp; smtd/seddp): lower in each patient when NAC is used
